Here are results for one compound from patent US8852881B2, “Multiwell assay apparatus and method for determining biological activity of compounds” (Vertex Pharmaceuticals, Inc., priority 2004, dated 2014).

Protein sequences, listed by entry. Tags and fused reporters are not part of them. Lines headed by an entry give the natural chain unless they say otherwise; changes in a name come on top. Chains listed by the source or under a name are the forms on record and can include a tag or linker.
UniProt P13569, with tags, fused parts or gaps DEL508-508: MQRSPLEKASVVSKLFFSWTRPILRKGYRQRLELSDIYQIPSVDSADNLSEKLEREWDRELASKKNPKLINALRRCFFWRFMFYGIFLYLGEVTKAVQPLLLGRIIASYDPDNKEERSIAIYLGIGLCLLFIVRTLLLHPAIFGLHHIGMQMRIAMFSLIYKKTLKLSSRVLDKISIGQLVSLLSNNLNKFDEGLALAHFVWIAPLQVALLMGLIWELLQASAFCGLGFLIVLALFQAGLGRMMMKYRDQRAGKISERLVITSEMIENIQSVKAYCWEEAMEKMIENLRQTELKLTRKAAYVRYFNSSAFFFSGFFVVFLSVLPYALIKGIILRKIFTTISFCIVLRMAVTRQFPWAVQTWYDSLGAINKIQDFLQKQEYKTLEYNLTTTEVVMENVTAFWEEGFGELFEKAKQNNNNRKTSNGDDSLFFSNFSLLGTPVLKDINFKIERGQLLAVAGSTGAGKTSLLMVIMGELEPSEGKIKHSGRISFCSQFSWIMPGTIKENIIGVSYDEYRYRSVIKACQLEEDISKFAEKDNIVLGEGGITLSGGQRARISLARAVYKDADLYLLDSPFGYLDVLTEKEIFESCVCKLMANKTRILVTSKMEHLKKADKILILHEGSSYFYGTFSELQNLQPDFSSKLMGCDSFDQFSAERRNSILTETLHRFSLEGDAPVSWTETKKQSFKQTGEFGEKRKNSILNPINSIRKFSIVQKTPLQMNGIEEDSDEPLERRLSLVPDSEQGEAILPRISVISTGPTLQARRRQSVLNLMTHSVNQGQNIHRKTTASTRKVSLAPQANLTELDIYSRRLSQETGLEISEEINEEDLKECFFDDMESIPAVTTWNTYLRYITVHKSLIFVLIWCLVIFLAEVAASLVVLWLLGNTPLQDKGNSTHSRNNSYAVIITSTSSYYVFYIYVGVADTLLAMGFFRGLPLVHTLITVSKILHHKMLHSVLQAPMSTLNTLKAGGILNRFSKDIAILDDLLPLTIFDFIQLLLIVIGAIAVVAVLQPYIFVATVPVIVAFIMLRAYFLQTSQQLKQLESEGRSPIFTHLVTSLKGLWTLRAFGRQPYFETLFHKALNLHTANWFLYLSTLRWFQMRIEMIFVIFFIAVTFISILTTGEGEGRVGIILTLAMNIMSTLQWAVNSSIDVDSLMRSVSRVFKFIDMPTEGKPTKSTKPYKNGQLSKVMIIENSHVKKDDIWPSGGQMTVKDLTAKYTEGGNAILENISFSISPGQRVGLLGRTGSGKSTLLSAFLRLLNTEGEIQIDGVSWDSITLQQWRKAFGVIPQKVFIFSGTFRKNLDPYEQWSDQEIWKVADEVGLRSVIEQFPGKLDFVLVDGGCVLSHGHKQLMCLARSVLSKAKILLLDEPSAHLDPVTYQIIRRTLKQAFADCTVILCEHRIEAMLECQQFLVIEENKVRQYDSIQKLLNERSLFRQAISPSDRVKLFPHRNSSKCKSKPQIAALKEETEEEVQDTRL

The target of the assay is T1, ΔF508-CFTR (Homo sapiens, UniProt P13569, DEL508-508).
T1 construct: expressed in transfected cells; host or cells: Fischer Rat Thyroid (FRT) epithelial cell line
Description: Ussing chamber array transepithelial current (voltage clamp) in FRT cells expressing ΔF508-CFTR. The assay is classed as cell-based. Particulars: FRT cells carrying ΔF508-CFTR incubated 48 hours at 27° C.; 20 μM forskolin in all wells; clamp 60 mV; n=4; read-out: EC-50 response (increase in current as a function of added genistein).

As to `O=c1c(-c2ccc(O)cc2)coc2cc(O)cc(O)c12` [genistein], the EC50 stood at 18.1 ± 0.8 µM.
